According to publication PMC4125734 (Molecular & Cellular Proteomics : MCP, 2014):

B1: human tyrosine hydroxylase isoform 1 phosphorylated on Ser19 (TH-pS19), full stoichiometry (enzyme)
chain: not shown
modifications: phosphoserine at 19 (PRAK, full stoichiometry)
B2: human tyrosine hydroxylase isoform 1 phosphorylated on both Ser19 and Ser40 (TH-pS19pS40) (enzyme)
chain: not shown
modifications: phosphoserine at 19 (PRAK) and phosphoserine at 40 (PKA), full stoichiometry
B3: human tyrosine hydroxylase isoform 1 (hTH1), nonphosphorylated (enzyme)
chain: not shown

Molecular target: the molecule itself
Assay: native MS

Protein | stoichiometry N
B1 | 4
B2 | 4
B3 | 4
